The record followed here is ChEMBL document CHEMBL1130285, “5-HT1A-versus D2-receptor selectivity of flesinoxan and analogous N4-substituted N1-arylpiperazines” (J Med Chem, 1997).

The chains behind the UniProt entries cited, without tags or fusion partners.
UniProt P61169, whole entry: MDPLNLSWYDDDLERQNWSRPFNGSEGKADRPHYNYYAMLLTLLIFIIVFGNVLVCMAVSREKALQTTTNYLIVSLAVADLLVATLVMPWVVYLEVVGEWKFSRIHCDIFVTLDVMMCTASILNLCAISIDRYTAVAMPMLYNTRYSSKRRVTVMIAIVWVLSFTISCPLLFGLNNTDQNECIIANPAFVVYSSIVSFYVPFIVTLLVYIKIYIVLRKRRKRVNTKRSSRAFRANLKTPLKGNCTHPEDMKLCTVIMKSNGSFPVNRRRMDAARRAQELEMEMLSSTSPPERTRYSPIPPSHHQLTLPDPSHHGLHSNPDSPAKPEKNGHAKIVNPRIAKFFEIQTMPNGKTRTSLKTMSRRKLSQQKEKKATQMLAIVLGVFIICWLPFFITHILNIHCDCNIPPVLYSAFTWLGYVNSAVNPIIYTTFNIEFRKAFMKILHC

For the test, the target named is D(2) dopamine receptor (Rattus norvegicus, UniProt P61169). Nature of the test: In vitro displacement of [3H]spiperone from Dopamine receptor D2 binding site in rat striatum.

SMILES strings stand for the structures. pKi: −log10 of the molar value.

By pKi is commonly meant the negative decadic logarithm of the Ki, by convention in mol/L. A high value points to a low Ki. In turn, `O=C(NCCN1CCN(c2ccccc2)CC1)c1ccc(F)cc1` gave a pKi of 7.04.
